## CycPeptMPDB entries from one study

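The data file gives no further conditions (lipid, pH, time, direction or concentration), and values from different papers need not be comparable. The list need not hold all peptides of the study. Entries at the database's floor value (log10 P of -10) are not listed.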

PAMPA is the parallel artificial membrane permeability assay, which has no cells and reads passive diffusion. Values are log10 P with P in cm/s, so -5 is more permeable than -7.

PAMPA (log10 cm/s)	compound
-6.00	CC(=O)N1CCC[C@H]1C(=O)N[C@@H]1C(=O)N(C)[C@H](CC(C)C)C(=O)N[C@H](CC(C)C)C(=O)N[C@@H](CC(C)C)C(=O)N[C@@H](CC(C)C)C(=O)N(C)[C@@H](C)C(=O)N[C@@H](CC(C)C)C(=O)N2CCC[C@@H]2C(=O)O[C@@H]1C
-5.28	CC(=O)N1CCC[C@@H]1C(=O)N(C)[C@@H](CC(C)C)C(=O)N[C@@H]1C(=O)N(C)[C@H](CC(C)C)C(=O)N(C)[C@@H](CC(C)C)C(=O)N(C)[C@H](CC(C)C)C(=O)N(C)[C@H](C)C(=O)N[C@H](CC(C)C)C(=O)N2CCC[C@H]2C(=O)O[C@@H]1C
-5.96	CC(=O)N1CCC[C@H]1C(=O)N(C)[C@@H](CC(C)C)C(=O)N[C@@H]1C(=O)N[C@H](CC(C)C)C(=O)N(C)[C@@H](CC(C)C)C(=O)N[C@H](CC(C)C)C(=O)N[C@H](C)C(=O)N[C@H](CC(C)C)C(=O)N2CCC[C@H]2C(=O)O[C@@H]1C
-6.85	CC(=O)N1CCC[C@@H]1C(=O)N(C)[C@@H](CC(C)C)C(=O)N[C@@H]1C(=O)N[C@@H](CC(C)C)C(=O)N[C@H](CC(C)C)C(=O)N(C)[C@H](CC(C)C)C(=O)N[C@@H](C)C(=O)N[C@@H](CC(C)C)C(=O)N2CCC[C@H]2C(=O)O[C@@H]1C
-5.25	CC(=O)N1CCC[C@@H]1C(=O)N(C)[C@@H](CC(C)C)C(=O)N[C@@H]1C(=O)N(C)[C@H](CC(C)C)C(=O)N(C)[C@H](CC(C)C)C(=O)N[C@@H](CC(C)C)C(=O)N(C)[C@H](C)C(=O)N[C@@H](CC(C)C)C(=O)N2CCC[C@H]2C(=O)O[C@@H]1C
-5.20	CC(=O)N1CCC[C@H]1C(=O)N(C)[C@H](CC(C)C)C(=O)N[C@@H]1C(=O)N(C)[C@H](CC(C)C)C(=O)N[C@H](CC(C)C)C(=O)N(C)[C@@H](CC(C)C)C(=O)N(C)[C@H](C)C(=O)N[C@H](CC(C)C)C(=O)N2CCC[C@@H]2C(=O)O[C@@H]1C
-5.31	CC(=O)N1CCC[C@@H]1C(=O)N(C)[C@@H](CC(C)C)C(=O)N[C@@H]1C(=O)N(C)[C@H](CC(C)C)C(=O)N[C@@H](CC(C)C)C(=O)N(C)[C@H](CC(C)C)C(=O)N(C)[C@H](C)C(=O)N[C@@H](CC(C)C)C(=O)N2CCC[C@H]2C(=O)O[C@@H]1C
-6.18	CC(=O)N1CCC[C@@H]1C(=O)N(C)[C@H](CC(C)C)C(=O)N[C@@H]1C(=O)N(C)[C@@H](CC(C)C)C(=O)N[C@@H](CC(C)C)C(=O)N(C)[C@@H](CC(C)C)C(=O)N[C@@H](C)C(=O)N[C@H](CC(C)C)C(=O)N2CCC[C@H]2C(=O)O[C@@H]1C
-5.67	CC(=O)N1CCC[C@@H]1C(=O)N(C)[C@@H](CC(C)C)C(=O)N[C@@H]1C(=O)N[C@H](CC(C)C)C(=O)N(C)[C@H](CC(C)C)C(=O)N(C)[C@H](CC(C)C)C(=O)N[C@H](C)C(=O)N[C@H](CC(C)C)C(=O)N2CCC[C@H]2C(=O)O[C@@H]1C
-6.38	CC(=O)N1CCC[C@H]1C(=O)N(C)[C@H](CC(C)C)C(=O)N[C@@H]1C(=O)N[C@H](CC(C)C)C(=O)N[C@H](CC(C)C)C(=O)N[C@H](CC(C)C)C(=O)N[C@@H](C)C(=O)N[C@H](CC(C)C)C(=O)N2CCC[C@H]2C(=O)O[C@@H]1C
-6.28	CC(=O)N1CCC[C@H]1C(=O)N(C)[C@@H](CC(C)C)C(=O)N[C@@H]1C(=O)N(C)[C@@H](CC(C)C)C(=O)N(C)[C@H](CC(C)C)C(=O)N[C@H](CC(C)C)C(=O)N[C@H](C)C(=O)N[C@@H](CC(C)C)C(=O)N2CCC[C@H]2C(=O)O[C@@H]1C
-5.61	CC(=O)N1CCC[C@@H]1C(=O)N(C)[C@@H](CC(C)C)C(=O)N[C@@H]1C(=O)N(C)[C@@H](CC(C)C)C(=O)N[C@H](CC(C)C)C(=O)N(C)[C@@H](CC(C)C)C(=O)N(C)[C@@H](C)C(=O)N[C@@H](CC(C)C)C(=O)N2CCC[C@H]2C(=O)O[C@@H]1C
-5.90	CC(=O)N1CCC[C@H]1C(=O)N(C)[C@@H](CC(C)C)C(=O)N[C@@H]1C(=O)N(C)[C@H](CC(C)C)C(=O)N[C@@H](CC(C)C)C(=O)N(C)[C@H](CC(C)C)C(=O)N(C)[C@H](C)C(=O)N[C@H](CC(C)C)C(=O)N2CCC[C@@H]2C(=O)O[C@@H]1C
-5.55	CC(=O)N1CCC[C@@H]1C(=O)N(C)[C@@H](CC(C)C)C(=O)N[C@@H]1C(=O)N(C)[C@@H](CC(C)C)C(=O)N(C)[C@H](CC(C)C)C(=O)N(C)[C@H](CC(C)C)C(=O)N(C)[C@@H](C)C(=O)N[C@H](CC(C)C)C(=O)N2CCC[C@@H]2C(=O)O[C@@H]1C
-5.49	CC(=O)N1CCC[C@@H]1C(=O)N(C)[C@H](CC(C)C)C(=O)N[C@@H]1C(=O)N[C@H](CC(C)C)C(=O)N(C)[C@@H](CC(C)C)C(=O)N(C)[C@H](CC(C)C)C(=O)N(C)[C@H](C)C(=O)N[C@@H](CC(C)C)C(=O)N2CCC[C@H]2C(=O)O[C@@H]1C
-6.10	CC(=O)N1CCC[C@@H]1C(=O)N(C)[C@@H](CC(C)C)C(=O)N[C@@H]1C(=O)N(C)[C@H](CC(C)C)C(=O)N(C)[C@@H](CC(C)C)C(=O)N(C)[C@H](CC(C)C)C(=O)N(C)[C@@H](C)C(=O)N[C@@H](CC(C)C)C(=O)N2CCC[C@@H]2C(=O)O[C@@H]1C

Repeated from above, the 2 entries with the highest PAMPA:

compound	PAMPA (log10 cm/s)
CC(=O)N1CCC[C@H]1C(=O)N(C)[C@H](CC(C)C)C(=O)N[C@@H]1C(=O)N(C)[C@H](CC(C)C)C(=O)N[C@H](CC(C)C)C(=O)N(C)[C@@H](CC(C)C)C(=O)N(C)[C@H](C)C(=O)N[C@H](CC(C)C)C(=O)N2CCC[C@@H]2C(=O)O[C@@H]1C	-5.20
CC(=O)N1CCC[C@@H]1C(=O)N(C)[C@@H](CC(C)C)C(=O)N[C@@H]1C(=O)N(C)[C@H](CC(C)C)C(=O)N(C)[C@H](CC(C)C)C(=O)N[C@@H](CC(C)C)C(=O)N(C)[C@H](C)C(=O)N[C@@H](CC(C)C)C(=O)N2CCC[C@H]2C(=O)O[C@@H]1C	-5.25

Collected by the curators of CycPeptMPDB (Li et al. 2023) from Kelly et al. 2021, doi:10.1021/jacs.0c06115.